Experimental data reported in patent US6686388B2, “Regulators of the hedgehog pathway, compositions and uses related thereto” (priority 1999, dated 2004).

System: medulloblastoma cells from ptc knockout mice
Conditions: […] once-daily intraperitoneal

CC1=C2C[C@H]3[C@@H](CC=C4C[C@@H](O)CC[C@@]43C)[C@@H]2CC[C@]12O[C@@H]1C[C@H](C)CN[C@H]1[C@H]2C [cyclopamine]
appearance of treated mice: appeared healthy
